From PubChem BioAssay AID651718 (The Scripps Research Institute Molecular Screening Center, 2012)
The list shows a part of the results, in another mix than the full data. Active and inactive are the calls of the source. Rule as the data show it: active = inhibition above about 4.5%; inactive = the rest.

test system: Methionine sulfoxide reductase A (Bos taurus); test: inhibition of methionine sulfoxide reductase A – biochemical, absorbance, bovine, HTS, primary screen (AID 651718); conditions: purified bovine MsrA, absorbance read-out; at 15.5 µM; active compounds read high;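 also: 0% = vehicle wells with enzyme and 100% = reference inhibitor wells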

Structure (SMILES) | inhibition
Cc1c2c(nc3ccccc13)SC(C(Cl)Cl)C2 (configuration not stated) | inactive: 0.56%
Cc1cc(=O)[nH]c(N[N+](=O)[O-])n1 | inactive: -0.1%
O=C(OC1CN2CCC1CC2)C12CC3CC(CC(C3)C1)C2 (configuration not stated) | inactive: 0.7%
CC(C)NC(=O)NP(=O)(Oc1ccccc1)Oc1ccccc1 | inactive: 1.97%
CCN(CC)C(=S)SC(NC=O)C(Cl)(Cl)Cl (configuration not stated) | inactive: -0.58%
O=C(OC1CN2CCC1CC2)c1cccc2[nH]cnc12 (configuration not stated) | inactive: 0.23%
ClCCSc1nnc(-c2cccnc2)o1 | inactive: -1.15%
COC(=O)C1(C)COP(=O)(N2CCCCCC2)OC1 (configuration not stated) | inactive: -0.04%
CC(C)c1ccc(OP(=O)(Nc2ccccn2)Oc2ccccc2F)cc1 (configuration not stated) | inactive: 0.78%
[N-]=[N+]=NC1CCCCC1NC(=O)c1cc([N+](=O)[O-])cc([N+](=O)[O-])c1 (configuration not stated) | inactive: 1.1%
Cc1ccc(OP(=O)(Nc2ccc([N+](=O)[O-])cn2)Oc2ccc(C)cc2)cc1 | inactive: -0.66%
Cc1ccc2nc3c(c(C)c2c1)CC(C(Cl)Cl)S3 (configuration not stated) | inactive: 1.62%
O=[N+]([O-])c1ccc(-c2cc([N+](=O)[O-])c(O)c([N+](=O)[O-])c2)cc1 | inactive: 3.61%
COc1cc(C(=O)NCC2(N3CCOCC3)CCCCC2)ccc1OCC(C)C | inactive: -0.19%
O=[As](O)(c1ccc(O)cc1)c1ccccc1O | inactive: 0.08%
C[As](=O)(O)c1cccc(C(=O)O)c1 | inactive: 0.1%
O=P(Nc1ccccn1)(c1cccc2ccccc12)c1cccc2ccccc12 | inactive: 1.89%
Cc1cc(SC(NC=O)C(Cl)(Cl)Cl)ncn1 (configuration not stated) | inactive: -0.46%
O=[N+]([O-])c1ccc(Nc2ccc(Oc3ccc([N+](=O)[O-])cc3[N+](=O)[O-])cc2)c([N+](=O)[O-])c1 | inactive: -0.2%
CCOC(=O)Nc1cccc([As](=O)(O)O)c1 | inactive: -0.75%
COP(=O)(OC)N1CC1c1ccccc1 (configuration not stated) | inactive: -1.3%

Structure (SMILES) | inhibition
Cc1cc(SC(NC(=O)c2ccccc2)C(Cl)(Cl)Cl)nc(C(C)C)n1 (configuration not stated) | inactive: 0.33%
CCCCOc1ccc(C(=O)NCC2(N3CCCCC3)CCCCC2)cc1OC | inactive: -0.83%
CCOC(=O)Nc1ccc([As](=O)(O)O)c(O)c1 | inactive: -0.97%
O=C(O)C(O)c1ccc(N(CCCl)CCCl)cc1 (configuration not stated) | inactive: 0.85%
CC1CCNP(=O)(N(CCCl)CCCl)O1 (configuration not stated) | inactive: 1.52%
CCC(C)N(CC(C)C)C(=S)SC(NC(C)=O)C(Cl)(Cl)Cl (configuration not stated) | inactive: -1.24%
O=C(OC1CN2CCC1CC2)c1cccc([N+](=O)[O-])c1 (configuration not stated) | inactive: 1.52%
CCOC(=O)c1ccc(NC(=O)C(C)(CCl)SC)cc1 (configuration not stated) | inactive: 0.65%
O=C(O)C(=O)c1ccc(N(CCCl)CCCl)cc1 | inactive: 2.06%
O=C(Nc1ccncc1[N+](=O)[O-])c1ccc([N+](=O)[O-])cc1[N+](=O)[O-] | inactive: 1.13%
O=C(COc1ccccc1)OC1CN2CCC1CC2 (configuration not stated) | inactive: -0.48%
COC(=O)C1(C)COP(=O)(N2CCCC2)OC1 (configuration not stated) | inactive: -0.55%
COP1(=S)c2c(C)nn(CCC#N)c2N=C(c2ccc(F)cc2)N1C (configuration not stated) | inactive: -0.21%
CN(C(=O)Cc1ccc(Cl)c(Cl)c1)C1CCCC[C@@H]1N1CCCC1 (some centres not stated) | inactive: -1.55%
CC(C)/C=N\N=C(\N)N[N+](=O)[O-] | inactive: 0.32%
CN(C(=O)Cc1ccc(Cl)c(Cl)c1)[C@@H]1CCCC[C@H]1N1CCCC1 | inactive: 1.89%
CC1(CBr)Cn2c(nc3ccccc3c2=O)S1 (configuration not stated) | inactive: 1%
COc1ccccc1CNC(=O)COC(=O)C(O)(c1ccccc1)c1ccccc1 | inactive: -0.78%
CC(C)(C)C(=O)NC(Sc1ncccn1)C(Cl)(Cl)Cl (configuration not stated) | inactive: 1.17%
O=P1(N(CCCl)CCCl)NCCC(C(F)(F)F)O1 (configuration not stated) | inactive: -0.18%
Clc1n[nH]nc1-c1nn[nH][15n]1 | inactive: -1.21%

Structure (SMILES) | inhibition
CCOP(=O)(NC(=NC(C)c1ccccc1)NC(C)c1ccccc1)OCC (configuration not stated) | inactive: -0.36%
O=P1(Nc2ccccn2)COc2ccccc2OC1 | inactive: 0.38%
CCC1=CC2Cc3nc4ccc(Cl)cc4c(N)c3C(C1)C2 (configuration not stated) | inactive: 1.01%
CCOP(=O)(Nc1ccc(C)cn1)OCC | inactive: -0.97%
CN(CCCl)Cc1cc(Cl)c(NC2=NCCN2)c(Cl)c1 | inactive: -0.46%
Nc1cccc([As](=O)(O)c2ccccc2)c1 | inactive: -0.74%
Cc1ccc(OCC(=O)OC2CN3CCC2CC3)cc1 (configuration not stated) | inactive: -1.52%
O=[As](O)(c1cccs1)c1cccs1 | inactive: -0.1%
O=P1(Nc2ccc(Br)cn2)COc2ccccc2OC1 | inactive: -1.4%
NS(=O)(=O)c1cccc(NC(=O)COC(=O)C(O)(c2ccccc2)c2ccccc2)c1 | inactive: -0.04%
Cc1ccc(S(=O)(=O)N(CCCN)CCCc2c(C)nc(N)[nH]c2=O)cc1 | inactive: 3.76%
O=P1(Nc2ncccn2)COc2ccccc2OC1 | inactive: 0.87%
CN(C)C1(CNC(=O)c2ccc(S(C)(=O)=O)cc2)CCCCC1 | inactive: 0.76%
CCCC1OP(=O)(Nc2ccccc2)OCC1CC (configuration not stated) | inactive: 0.4%
O=C(/C=C/c1ccccc1)OC1CN2CCC1CC2 (configuration not stated) | inactive: 0%
CC1CCC(C(C)C)C(OP(=O)(Nc2ccccn2)c2ccccc2)C1 (configuration not stated) | inactive: -1.19%
Cc1ccc(C(=O)OC2CN3CCC2CC3)cc1 (configuration not stated) | inactive: 0.1%
Cc1nn(-c2ccccc2)c2c1P(=O)(N1CCOCC1)N(C)C(c1ccccc1)=N2 (configuration not stated) | inactive: 0.32%
CN(C(=O)Cc1ccccc1)[C@@H]1CC[C@]2(CCCO2)C[C@H]1N1CCCC1 | inactive: 0.13%
CCOP1(=S)c2c(C)nn(CCC#N)c2N=C(c2ccc(F)cc2)N1C (configuration not stated) | inactive: -0.6%
N#CCCN(C(=O)COC(=O)C(O)(c1ccccc1)c1ccccc1)c1ccc(F)cc1 | inactive: -0.95%

Structure (SMILES) | inhibition
CN(C(=O)Cc1ccc(Cl)c(Cl)c1)[C@H]1CC[C@@]2(CCCO2)C[C@@H]1N1CCCC1 | inactive: 0.34%
O=[N+]([O-])c1ccc2c(c1)nnn2O | inactive: 0.94%
CN(C)C(=O)c1cc([N+](=O)[O-])cc2c1-c1c(cc([N+](=O)[O-])cc1[N+](=O)[O-])C2=O | active: 8.33%
NC(=O)Nc1ccc([As](=O)(O)O)cc1 | inactive: -0.85%
Nc1ccccc1[As](=O)(O)c1ccccc1 | inactive: 0%
O=C(O)COc1ccc([As](=O)(O)O)cc1[N+](=O)[O-] | inactive: 0.97%
O=P(Nc1nccs1)(Oc1ccccc1)Oc1ccccc1 | inactive: -0.64%
CCOP1(=S)c2c(C)nn(CCC#N)c2N=C(c2ccccc2F)N1C (configuration not stated) | inactive: 0.04%
CCOP(=O)(Nc1cccc2ccccc12)OCC | inactive: -0.54%
COc1cc(C2NCCC3(OCCO3)C2(C)C)cc(OC)c1OC (configuration not stated) | inactive: -0.26%
Cc1ccc(NCCc2c([N+](=O)[O-])cc([N+](=O)[O-])cc2[N+](=O)[O-])cc1 | inactive: 0.14%
Nc1cccc2c([As](=O)(O)O)cccc12 | inactive: 0.86%
CCCOP(=S)(Nc1nc(N)cc(=O)[nH]1)OCCC | inactive: 0.19%
Cc1cccc(OCC(=O)OC2CN3CCC2CC3)c1 (configuration not stated) | inactive: -0.05%
O=[As](O)(c1cccc(O)c1)c1cccc(O)c1 | inactive: 0.4%
O=C(OC1CN2CCC1CC2)c1ccc(Cl)cc1 (configuration not stated) | inactive: 0.35%
CS(=O)(=O)c1ccc(Cl)c(NC(=O)COC(=O)C(O)(c2ccccc2)c2ccccc2)c1 | inactive: -1.31%
O=[As](O)(O)c1cccnc1 | inactive: -1.06%
COc1cc(C(=O)NCC2(N3CCOCC3)CCCCC2)cc(Cl)c1OC(C)C | inactive: 1.5%
